# Assay outcomes deposited in PubChem by Broad Institute.
# Hits are enriched below; roughly 2.1% of the tested compounds scored in any of these assays.
# MITF act: MITF TRPM1 promoter activation in melanoma cells | activation, % at 12.5 µM | SK-MEL-5 TRPM1-promoter luciferase, 24 h; % of positive control, neutral wells = 0 | 0.75% of 300,000 active;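 active = mean activation of at least 80% with every replicate also reaching 80%; inconclusive = mean reaches 80% but some replicate falls short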
# TRPM1 prom inh: reduces MITF-dependent TRPM1 promoter luciferase signal | SK-MEL-5 TRPM1 promoter luciferase, 24 h | inhibition, % at 12.5 µM | 0.83% of 330,000 active | AID 488899;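 active = mean inhibition across replicates of 60% or more, whatever share of single replicates reaches that level; inconclusive = some that reach 60%, reason not given; inactive = mean inhibition across replicates below 60%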
# miR-122 sensor: inhibitors of miR-122 in Huh7 cells. activation (reporter increase), % at 12.5 µM. 0.3% of 340,000 active. Huh7 miR-122 Renilla luciferase sensor, 48 h; neutral wells = 0, positive control = 100;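 active = mean replicate activation score at least 90 and every replicate individually at or above 90; inconclusive = only one of the two criteria met; inactive = neither criterion met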;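 note: higher luciferase means less miR-122 activity so hits act as miR-122 inhibitors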
# Wnt bcat act: activates Wnt/beta-catenin signaling in a reporter cell assay | activation, % at 9.35 µM | activator, plate reader | 1.2% of 300,000 active | AID 743398; in the data active = activation above about 30%, passing the limit was not always enough; inconclusive = no clear call, values can overlap the other calls
# Yeast UUG start: modulators of start codon recognition fidelity in yeast; AID 602363; activity score, % at 18.7 µM; S. cerevisiae UUG-firefly luciferase reporter, luminescence/redox ratio; 0.13% of 350,000 active;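 active = replicate mean at a twofold rise or more, about +100% in these data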;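 note: firefly luciferase made from a UUG start codon reports start codon fidelity; reporter light over untreated wells divided by growth signal over untreated wells; some hits fall short of that in this replicate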
# PGC1a acetyl inh: PGC1a acetylation modulation, inhibitor mode; inhibition, % at 15.6 µM; U2OS PGC1a acetylation, AlphaScreen anti-acetyl-lysine; with virally co-expressed GCN5 acetyltransferase; 0.17% of 350,000 active; AID 651687;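 active = every replicate shows inhibition of at least 40%; inconclusive = mean inhibition at least 40% but some replicate below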
# Hits are given with their value; . = inactive; ? = inconclusive; / = not tested or not shown.
SMILES,MITF act,TRPM1 prom inh,miR-122 sensor,Wnt bcat act,Yeast UUG start,PGC1a acetyl inh
COc1ccc(OC)c(S(=O)(=O)Nc2cc3c4c(c2)CCN4C(=O)CC3)c1,.,.,143,.,.,/
CCc1ccc(NS(=O)(=O)c2cc(OC)ccc2OC)cc1,.,.,140,.,/,/
CCOc1cc(C)c(S(=O)(=O)Nc2ccc(F)cc2)cc1C,.,.,304,/,.,.
COc1ccc(OC)c(S(=O)(=O)Nc2cc3c4c(c2)CC(=O)N4CCC3)c1,.,.,/,.,.,/
COC(=O)c1ccc(NS(=O)(=O)c2cc(C)ccc2OC)cc1,.,.,150,/,.,.
COc1ccc(S(=O)(=O)Nc2ccc(S(=O)(=O)Nc3ccc(F)cc3)cc2)cc1C,.,.,?,/,.,.
COc1ccc(-c2cnc3c(c2)C(=O)N([C@H](C)CO)C[C@@H](C)[C@H](CN(C)Cc2ccc(C(=O)O)cc2)O3)cc1,/,/,.,/,.,.
COc1ccccc1S(=O)(=O)N[C@H]1CC[C@@H](CCn2cc(C3CCCC3)nn2)O[C@H]1CO,/,/,/,/,/,.
COc1ccc(OC)c(S(=O)(=O)Nc2ccc(F)cc2)c1,.,.,.,.,.,.
COc1ccc(NC(=O)[C@H](C)NC(N)=O)cc1S(=O)(=O)Nc1cc(C)ccc1Br,.,.,.,.,.,.
COc1ccc(C)cc1S(=O)(=O)Nc1ccc(F)cc1,.,.,113,.,.,.
Cc1ccc(C)c(S(=O)(=O)Nc2cc3c4c(c2)CC(=O)N4CCC3)c1,.,.,163,.,.,.
COc1ccc(NC(=O)C2CCC2)cc1S(=O)(=O)Nc1cc(C)ccc1Br,.,.,170,.,.,.
Cc1ccc(NC(=O)c2ccc(F)cc2F)cc1,.,.,.,46,.,.
O=C(Nc1ccc(N2CCCC2)cc1)c1ccccc1F,.,.,.,/,.,.
O=C(Nc1ccc(N2CCCCC2)cc1)c1ccc(F)cc1F,.,.,.,44,.,/
Cc1cc(=O)oc2cc(NC(=O)c3cc(F)ccc3F)ccc12,.,.,.,44,.,.
O=C(NC(=O)c1ccc(F)cc1F)Nc1ccc(Cl)cc1,.,.,/,33,/,/
O=C(Nc1ccccc1)c1ccc(F)cc1F,.,.,.,.,.,.
COc1ccc(C[C@H](N)C(=O)N[C@H]2[C@@H](O)[C@H](n3cnc4c(N(C)C)ncnc43)O[C@@H]2CO)cc1,.,109,.,.,.,.
CN(C)c1ncnc2c1ncn2C1OC(CO)C(O)C1O (stereo not given),.,.,.,/,.,?
O=C(Nc1nccs1)c1ccc(-c2ccc(Cl)cc2Cl)o1,.,.,.,.,.,/
O=C(Nc1nccs1)c1ccc(-c2ccc(F)c(Cl)c2)o1,113,.,.,.,.,.
C[C@H](CO)N1C[C@H](C)[C@H](CN(C)CC2CC2)Oc2ccc(NS(=O)(=O)c3cccs3)cc2CC1=O,/,/,.,/,.,.
C[C@H]1CN([C@@H](C)CO)C(=O)c2cc(NC(=O)CCC(F)(F)F)ccc2O[C@@H]1CN(C)CC1CC1,/,/,.,/,.,/
SMILES,MITF act,TRPM1 prom inh,miR-122 sensor,Wnt bcat act,Yeast UUG start,PGC1a acetyl inh
CCCSc1nc2c(cnn2-c2ccccc2)c(=O)[nH]1,.,.,.,.,.,.
C=CCSc1nc2c(cnn2-c2ccccc2)c(=O)n1N,/,/,.,56,.,.
CC(=O)c1ccc(NC(=S)N2CCC(Cc3ccccc3)CC2)cc1,.,.,/,40,/,/
O=C(NCCc1ccccc1)[C@H]1[C@H](CO)[C@H]2Cn3c(cccc3=O)[C@@H]1N2C(=O)C1CCC1,/,/,.,/,.,/
CCc1nnc(N/N=C/c2cc(Br)c(O)cc2O)n1N,.,.,.,.,.,.
CC(C)(C)c1nnc(N/N=C/c2cc(Br)ccc2O)n(N)c1=O,.,68,.,33,.,/
N#Cc1c(NC(=O)CSc2ncn[nH]2)sc2c1CCCCC2,.,80,.,/,.,.
O=C(NC[C@H]1N[C@H](CO)[C@@H]1c1ccc(C2=CCCCC2)cc1)c1ccccc1,/,/,.,/,.,.
CS(=O)(=O)c1ccc(S(=O)CC(=O)OCc2ccccc2)c([N+](=O)[O-])c1 (stereo not given),.,83,/,.,/,/
O=C(CS(=O)c1ccc(C(F)(F)F)cc1[N+](=O)[O-])Oc1ccccc1 (stereo not given),.,88,.,.,.,.
COc1ccc(CCNC(=O)C2CCN(S(=O)(=O)c3ccc(C)cc3)CC2)cc1OC,.,.,.,62,.,.
COc1ccc(CCNC(=O)C2CCN(S(=O)(=O)c3ccc(OC)c(OC)c3)CC2)cc1OC,.,.,.,.,.,.
CC1CCN(S(=O)(=O)N2CCC(C(=O)NCCc3ccccc3)CC2)CC1,.,.,143,.,.,.
CC1CCCCN1C(=S)NCCc1ccccc1 (stereo not given),/,.,.,37,.,.
COc1ccc(S(=O)(=O)Nc2ccc3c(c2)CC(=O)N([C@@H](C)CO)C[C@H](C)[C@@H](CN(C)C(=O)NC(C)C)O3)cc1,/,/,.,/,.,.
O=C1c2ccccc2NC(c2cccc(Cl)c2)N1N=C1CCCCCC1 (stereo not given),92,.,.,?,.,.
O=C1C=CC(=O)c2c(O)c(CO)c(CO)c(O)c21,/,103,.,.,/,.
O=C(C[C@@H]1C[C@@H]2c3cc(NC(=O)NC4CCCC4)ccc3O[C@@H]2[C@H](CO)O1)NC1CCCC1,/,/,.,/,.,.
COc1ccc(Oc2ncnc3sccc23)cc1,88,.,.,.,.,.
COc1ccc(Nc2ncnc3sccc23)cc1,.,.,.,.,.,.
O=C(O)C(Cc1ccccc1N(CCO)CCO)N1C(=O)c2ccccc2C1=O (stereo not given),.,.,.,.,.,.
O=C(O)C(Cc1c[nH]c2ccccc12)N1C(=O)c2ccccc2C1=O (stereo not given),.,.,/,43,/,/
CS(=O)(=O)Nc1ccc2c(c1)[C@@H]1C[C@H](CC(=O)NC3CCCC3)O[C@H](CO)[C@@H]1O2,/,/,.,/,/,.
CC(C)(C)NCC(=Cc1ccccc1)C(=O)c1ccccc1,.,98,/,.,/,/
CNC[C@H]1OCCCC[C@@H](C)Oc2ccc(NS(=O)(=O)c3ccc(C)cc3)cc2C(=O)N([C@@H](C)CO)C[C@@H]1C,/,/,.,/,/,.
SMILES,MITF act,TRPM1 prom inh,miR-122 sensor,Wnt bcat act,Yeast UUG start,PGC1a acetyl inh
C[C@@H]1CN([C@@H](C)CO)S(=O)(=O)c2ccc(C#C[C@@H](C)O)cc2O[C@H]1CN(C)C(=O)C1CCCCC1,/,/,.,/,.,.
C[C@@H]1CN([C@@H](C)CO)C(=O)CCCn2cc(nn2)CO[C@@H]1CN(C)C(=O)Nc1cccc(F)c1,/,/,.,/,/,.
CCn1cc(/C=C(\NC(=O)c2ccccc2)C(=O)NCCCn2ccnc2)c2ccccc21,/,/,165,.,.,/
Cc1ccc(O)c(C2=Nc3ccccc3C2(C)C)c1,98,.,.,.,.,.
COc1ccc(C)cc1C1=Nc2ccccc2C1(C)C,.,.,.,/,.,/
CC(CC(=O)O)CC(=O)Nc1cc(C(F)(F)F)cc(C(F)(F)F)c1 (stereo not given),/,.,/,51,/,.
